Results: ChEMBL document CHEMBL1148502, “Carbonic anhydrase inhibitors: inhibition of the cytosolic human isozyme VII with anions” (Bioorg Med Chem Lett, 2006)

Chains of the proteins cited; added tags and fusions are not shown. Lines headed by an entry give the natural chain unless they say otherwise; changes in a name come on top.
UniProt P43166: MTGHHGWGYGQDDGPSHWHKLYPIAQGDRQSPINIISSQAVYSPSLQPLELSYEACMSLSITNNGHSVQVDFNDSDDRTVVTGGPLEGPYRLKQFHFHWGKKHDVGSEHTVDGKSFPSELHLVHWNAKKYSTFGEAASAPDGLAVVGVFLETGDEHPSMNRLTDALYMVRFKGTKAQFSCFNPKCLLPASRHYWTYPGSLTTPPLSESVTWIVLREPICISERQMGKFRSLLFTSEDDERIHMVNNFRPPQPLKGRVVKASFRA

Target: Carbonic anhydrase 7 (Homo sapiens, UniProt P43166)

`O=[As](O)(O)c1ccccc1` showed a Ki of 12.5 µM.
